Laboratory results reported in US11389415B2, “Methods of regulating cannabinoid receptor activity-related disorders and diseases” (The United States of America as represented by the …, priority 2012, dated 2022).

Chains of the proteins cited; added tags and fusions are not shown. Lines headed by an entry give the natural chain unless they say otherwise; changes in a name come on top.
UniProt Q9Y2T6: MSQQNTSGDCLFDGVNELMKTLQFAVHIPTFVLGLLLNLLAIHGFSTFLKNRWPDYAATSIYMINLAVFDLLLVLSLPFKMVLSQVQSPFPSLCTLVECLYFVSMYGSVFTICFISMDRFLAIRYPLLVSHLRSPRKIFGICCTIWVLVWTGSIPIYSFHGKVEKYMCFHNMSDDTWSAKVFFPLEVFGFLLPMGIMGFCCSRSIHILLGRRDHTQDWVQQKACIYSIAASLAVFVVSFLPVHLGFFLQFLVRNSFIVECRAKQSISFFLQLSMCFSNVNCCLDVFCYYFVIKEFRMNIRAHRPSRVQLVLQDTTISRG

Target: GPR55 (Homo sapiens, UniProt Q9Y2T6)
Assay: Cellular uptake of TocriFluor T1117 in HepG2 cells
Format: cell-based
Parameters: host or cells: HepG2 hepatocarcinoma cells

## Cc1c(C(=O)NN2CCCCC2)nn(-c2ccc(Cl)cc2Cl)c1-c1ccc(I)cc1 [AM251, 1-(2,4-dichlorophenyl)-5-(4-iodophenyl)-4-methyl-N-(1-piperidyl)pyrazole-3-carboxamide]
HepG2, AM630 1 μM, WIN 55,212-2 1 μM (1 hour), AM251 1 μM (30 minutes)
  effect of pretreatment on T1117 incorporation: neither inhibited nor enhanced constitutive T1117 incorporation
Simultaneous addition of 100× molar excess of unlabeled AM251, T1117 100 nM
  delay in the cellular accumulation of T1117: 18 min
